# Measurements as given in US8741576B2, “Heteroclitic analogs and related methods” (Epimunne Inc., priority 1999, dated 2014).
# Assays:
# [1] = system: CEA.691- and MAGE3.112-specific CTL lines; experiment: Th2 cytokine (IL10/IL5) production by human CTL lines, ELISA; assay type: cell-based
# [2] = system: CEA.691- and MAGE3.112-specific CTL lines; experiment: IFNγ release (in situ capture ELISA) from human CTL lines with peptide-pulsed .221A2.1 APC; settings: for peptide dose giving significant IFNγ release (>100 pg/well): dose titration; for Th1 cytokines: minimum peptide concentration required to induce 100 pg/well of IFNγ: human CTL lines
# [3] = system: MAGE2.157-, HBV Pol.455- and HIV Pol.476-specific CTL lines; experiment: IFNγ release (in situ capture ELISA) from murine CTL lines with peptide-pulsed .221A2.1 APC; assay type: cell-based, HLA-A2.1/K^bxs transgenic mice
# HLA-B7 (B*0702) = HLA-B7 (B*0702) (Homo sapiens, UniProt P01889); experiment: HLA-B7 (B*0702) peptide binding, competition with radiolabeled SS 5-13a (L7→Y) peptide
# [4] = system: MAGE2.170-specific CTL line; experiment: IFNγ release (ELISA) from human MAGE2.170-specific CTL line with GM3107 cells as APC; assay type: cell-based; settings: 0.01 μg/ml peptide dose
# [5] = system: p53.149M2- and p53mu.184-specific CTL; experiment: IFNγ release from CTL specific for p53 epitopes (p53.149M2, p53mu.184); assay type: cell-based; settings: for fold lower concentration than wildtype peptide inducing significant IFNγ production / IFNγ release at suboptimal dose: p53.149M2 CTL; for immunogenicity relative to wildtype p53mu.184: IFNγ production
# p53.149M2-specific CTL = experiment: IL10 production by p53.149M2-specific CTL; assay type: cell-based; settings: p53.149M2 CTL
# HLA-A2.1 (human) = HLA-A2.1 (human) (UniProt P04439)
# [6] = system: p53.261 epitope-reactive CTL; experiment: Immunization of HLA-A2.1/K^bxd transgenic mice with p53.261 or analogs, IFNγ in situ ELISA of restimulated CTL; assay type: in vivo; settings: for peptide concentration giving IFNγ production of 100 pg/well, compared to CTL induced and expanded with wildtype peptide: CTL expanded in vitro with the immunizing analog; for fold lower dose of wildtype peptide to induce 100 pg/well of IFNγ: immunized with analog, stimulated and tested in vitro with wildtype peptide
# [7] = system: Meth A/A2.1K^b tumor cells; experiment: IFNγ release of analog-induced CTL against endogenously processed p53.261 on Meth A tumor cells; assay type: cell-based, mouse; settings: Meth A/A2.1K^b clone vs parental Meth A
# [8] = system: wildtype p53.261 peptide-reactive CTL; experiment: Elispot precursor frequency of wildtype-reactive CD8+ cells from immunized mice; assay type: in vivo; settings: CD8+ cells stimulated with WT peptide
molecule,measurement,setting,value
CC[C@H](C)[C@H](N)C(=O)N[C@@H](CCSC)C(=O)N[C@H](C(=O)NCC(=O)N[C@@H](Cc1c[nH]cn1)C(=O)N[C@@H](CC(C)C)C(=O)N[C@H](C(=O)NCC(=O)N[C@H](C(=O)O)C(C)C)C(C)C)[C@@H](C)CC [CEA.691 H5],Th2 cytokines: minimum peptide concentration required to induce 50 pg/ml of IL10 or IL15,[1],10^−1 μg/ml
same,peptide dose giving significant IFNγ release (>100 pg/well),[2],0.01 ng/mL
same,Th1 cytokines: minimum peptide concentration required to induce 100 pg/well of IFNγ,[2],10^−7 μg/ml
CC[C@H](C)[C@H](N)C(=O)N[C@@H](CCSC)C(=O)N[C@@H](CCSC)C(=O)NCC(=O)N[C@H](C(=O)N[C@@H](CC(C)C)C(=O)N[C@H](C(=O)NCC(=O)N[C@H](C(=O)O)C(C)C)C(C)C)C(C)C [CEA.691 M3],Th2 cytokines: minimum peptide concentration required to induce 50 pg/ml of IL10 or IL15,[1],1 µg/mL
same,peptide dose giving significant IFNγ release (>100 pg/well),[2],0.01 ng/mL
same,Th1 cytokines: minimum peptide concentration required to induce 100 pg/well of IFNγ,[2],10^−5 μg/ml
same,fold increase in potency of IFNγ release compared to wildtype peptide,[2]; molar basis,"100,000 fold"
CC(C)C[C@H](NC(=O)[C@H](CCCNC(=N)N)NC(=O)[C@@H]1CCCN1C(=O)[C@@H](NC(=O)[C@H](Cc1ccc(O)cc1)NC(=O)[C@H](CCCNC(=N)N)NC(=O)[C@H](CO)NC(=O)[C@H](CC(C)C)NC(=O)CN)C(C)C)C(=O)O [HBV Pol.455 P7],Th1 cytokines: minimum peptide concentration required to induce 100 pg/well of IFNγ,[3],10^−2 μg/ml
CC[C@H](C)[C@H](N)C(=O)N[C@@H](CC(C)C)C(=O)N[C@@H](Cc1c[nH]cn1)C(=O)N[C@@H](CCC(=O)O)C(=O)N1CCC[C@H]1C(=O)N[C@H](C(=O)N[C@@H](Cc1c[nH]cn1)C(=O)NCC(=O)N[C@H](C(=O)O)C(C)C)C(C)C [HIV Pol.476 H3],Th1 cytokines: minimum peptide concentration required to induce 100 pg/well of IFNγ,[3],1 µg/mL
CC[C@H](C)[C@H](NC(=O)CNC(=O)[C@H](Cc1ccccc1)NC(=O)[C@H](Cc1ccccc1)NC(=O)[C@H](CC(C)C)NC(=O)[C@H](CCC(N)=O)NC(=O)[C@H](CC(C)C)NC(=O)[C@@H](N)Cc1ccc(O)cc1)C(=O)N[C@@H](CCC(=O)O)C(=O)N[C@H](C(=O)O)C(C)C [MAGE2.157 F5],Th1 cytokines: minimum peptide concentration required to induce 100 pg/well of IFNγ,[3],10^−2 μg/ml
CC[C@H](C)[C@H](NC(=O)CNC(=O)[C@H](Cc1ccccc1)NC(=O)[C@@H](NC(=O)[C@H](CC(C)C)NC(=O)[C@H](CCC(N)=O)NC(=O)[C@H](CC(C)C)NC(=O)[C@@H](N)Cc1ccc(O)cc1)[C@@H](C)CC)C(=O)N[C@@H](CCC(=O)O)C(=O)N[C@H](C(=O)O)C(C)C [MAGE2.157 I5],Th1 cytokines: minimum peptide concentration required to induce 100 pg/well of IFNγ,[3],10^−4 μg/ml
CC[C@H](C)[C@H](NC(=O)[C@H](CC(=O)O)NC(=O)[C@H](CC(C)C)NC(=O)[C@H](Cc1c[nH]cn1)NC(=O)[C@H](CO)NC(=O)[C@@H](NC(=O)[C@@H]1CCCN1C(=O)[C@@H](N)C(C)C)[C@@H](C)CC)C(=O)N[C@@H](CC(C)C)C(=O)O [MAGE2.170D7],change in HLA-B7 binding compared to wildtype peptide,HLA-B7 (B*0702),> 100 fold
same,IFNγ response compared to wildtype peptide,[4],greater than the wildtype peptide
CC[C@H](C)[C@H](NC(=O)[C@H](CCC(=O)O)NC(=O)[C@H](CC(C)C)NC(=O)[C@H](Cc1c[nH]cn1)NC(=O)[C@H](CO)NC(=O)[C@@H](NC(=O)[C@@H]1CCCN1C(=O)[C@@H](N)C(C)C)[C@@H](C)CC)C(=O)N[C@@H](CC(C)C)C(=O)O [MAGE2.170E7],IFNγ response compared to wildtype peptide,[4],greater than the wildtype peptide
CC[C@H](C)[C@H](NC(=O)CNC(=O)[C@H](CC(C)C)NC(=O)[C@H](Cc1c[nH]cn1)NC(=O)[C@H](CO)NC(=O)[C@@H](NC(=O)[C@@H]1CCCN1C(=O)[C@@H](N)C(C)C)[C@@H](C)CC)C(=O)N[C@@H](CC(C)C)C(=O)O [MAGE2.170G7],IFNγ response compared to wildtype peptide,[4],greater than the wildtype peptide
CC[C@H](C)[C@H](NC(=O)[C@H](Cc1c[nH]cn1)NC(=O)[C@H](CC(C)C)NC(=O)[C@H](Cc1c[nH]cn1)NC(=O)[C@H](CO)NC(=O)[C@@H](NC(=O)[C@@H]1CCCN1C(=O)[C@@H](N)C(C)C)[C@@H](C)CC)C(=O)N[C@@H](CC(C)C)C(=O)O [MAGE2.170H7],IFNγ response compared to wildtype peptide,[4],greater than the wildtype peptide
CC[C@H](C)[C@H](NC(=O)[C@H](CCSC)NC(=O)[C@H](CC(C)C)NC(=O)[C@H](Cc1c[nH]cn1)NC(=O)[C@H](CO)NC(=O)[C@@H](NC(=O)[C@@H]1CCCN1C(=O)[C@@H](N)C(C)C)[C@@H](C)CC)C(=O)N[C@@H](CC(C)C)C(=O)O [MAGE2.170M7],IFNγ response compared to wildtype peptide,[4],greater than the wildtype peptide
CC[C@H](C)[C@H](NC(=O)[C@H](CCC(=O)O)NC(=O)[C@H](C)NC(=O)[C@@H](NC(=O)[C@@H](N)CCCCN)C(C)C)C(=O)N[C@H](C(=O)N[C@@H](Cc1c[nH]cn1)C(=O)N[C@@H](Cc1ccccc1)C(=O)N[C@@H](CC(C)C)C(=O)O)C(C)C [MAGE3.112 I5],Th2 cytokines: minimum peptide concentration required to induce 50 pg/ml of IL10 or IL15,[1],"NS (NS, cytokine levels not significant (<5 pg/ml))"
same,peptide dose giving significant IFNγ release (>100 pg/well),[2],0.1 ng/mL
same,Th1 cytokines: minimum peptide concentration required to induce 100 pg/well of IFNγ,[2],10^−4 μg/ml
CC(C)C[C@H](NC(=O)[C@H](Cc1ccccc1)NC(=O)[C@H](Cc1c[nH]c2ccccc12)NC(=O)[C@@H](NC(=O)[C@H](CC(C)C)NC(=O)[C@H](CCC(=O)O)NC(=O)[C@H](C)NC(=O)[C@@H](NC(=O)[C@@H](N)CCCCN)C(C)C)C(C)C)C(=O)O [MAGE3.112 W7],peptide dose giving significant IFNγ release (>100 pg/well),[2],0.1 ng/mL
CMPPPGTRV (p53.149M2 C1) [analog of p53.149M2],fold lower concentration than wildtype peptide inducing significant IFNγ production,[5],10 fold
same,IFNγ release at suboptimal dose,[5],100 pg/well
same,fold lower peptide concentration than wildtype inducing significant IL10 levels,p53.149M2-specific CTL,100 fold
"GLTPPEHLIRV (p53.Mu184 T3, E6) [p53.Mu.184 T3,E6, analog of p53.Mu.184]",immunogenicity relative to wildtype p53mu.184,[5],enhanced immunogenicity
"GLTPPQHLIRV (p53.Mu184 T3) [p53.Mu.184 T3, analog of p53.Mu.184]",immunogenicity relative to wildtype p53mu.184,[5],enhanced immunogenicity
HBV Pol.455 P7 (peptide),IC50,HLA-A2.1 (human),267 nM
LLDRDSFEV (p53.261 D3) [predicted analog of p53.261],"peptide concentration giving IFNγ production of 100 pg/well, compared to CTL induced and expanded with wildtype peptide",[6],much lower peptide concentrations
same,fold lower dose of wildtype peptide to induce 100 pg/well of IFNγ,[6],1000 fold
same,response of analog-raised CTL lines to endogenous p53.261 epitope,[7],responded to the endogenous epitope expressed by a Meth A/A2.1K^b tumor cell clone but not to the parental HLA-A2.1-negative Meth A tumor cell line
LLGRDSFEV (p53.261) [reference compound],wildtype peptide dose inducing 100 pg/well IFNγ,[6]; CTL immunized and restimulated with wildtype peptide,0.1 to 10 µg/mL
same,Elispot spots of wildtype peptide-reactive cells,[8],15 spots/10^6
LLGRDSHEV (p53.261 H7) [predicted analog of p53.261],"peptide concentration giving IFNγ production of 100 pg/well, compared to CTL induced and expanded with wildtype peptide",[6],much lower peptide concentrations
same,Elispot spots of wildtype peptide-reactive cells,[8],12 spots/10^6
LLGRDSLEV (p53.261 L7) [predicted analog of p53.261],"peptide concentration giving IFNγ production of 100 pg/well, compared to CTL induced and expanded with wildtype peptide",[6],much lower peptide concentrations
same,fold lower dose of wildtype peptide to induce 100 pg/well of IFNγ,[6],10 fold
LLGRGSFEV (p53.261 G5) [predicted analog of p53.261],"peptide concentration giving IFNγ production of 100 pg/well, compared to CTL induced and expanded with wildtype peptide",[6],much lower peptide concentrations
LLHRDSFEV (p53.261 H3) [predicted analog of p53.261],"peptide concentration giving IFNγ production of 100 pg/well, compared to CTL induced and expanded with wildtype peptide",[6],much lower peptide concentrations
same,fold lower dose of wildtype peptide to induce 100 pg/well of IFNγ,[6],100 fold
same,response of analog-raised CTL lines to endogenous p53.261 epitope,[7],responded to the endogenous epitope expressed by a Meth A/A2.1K^b tumor cell clone but not to the parental HLA-A2.1-negative Meth A tumor cell line
SMPPPGPRV (p53.149M2 P7) [analog of p53.149M2],fold lower concentration than wildtype peptide inducing significant IFNγ production,[5],10 fold
same,IFNγ release at suboptimal dose,[5],100 pg/well
YLQLIFGIEV (modifications not checked) [MAGE2.157 I5],IC50,"HLA-A2.1 (human), P04439",476 nM
YLQLFFGIEV (modifications not checked) [MAGE2.157 F5],IC50,"HLA-A2.1 (human), P04439",212 nM
IMIGVLVGV (modifications not checked) [CEA.691],IC50,"HLA-A2.1 (human), P04439",54 nM
IMMGVLVGV (modifications not checked) [CEA.691 M3],IC50,"HLA-A2.1 (human), P04439",27 nM
IMIGHLVGV (modifications not checked) [CEA.691 H5],IC50,"HLA-A2.1 (human), P04439",16 nM
KVAEIVHFL (modifications not checked) [MAGE3.112 I5],IC50,"HLA-A2.1 (human), P04439",66 nM
